In publication PMC7193897:

Tests used:
[1] = system: CCCCCCCCCC(=O)CC(=O)N[C@H]1CCOC1=O; test: purified protein; conditions: pH 8.3
[2] = system: CCCC(=O)N[C@H]1CCOC1=O; test: purified protein; conditions: pH 8.3

SsoPox (Saccharolobus solfataricus P2; W263I)
Km [1]: 40 ± 10 µM
kcat/Km [1]: 80000 M⁻¹ s⁻¹
Km [2]: (4.3 ± 0.1) × 10^3 μM
kcat/Km [2]: 86 M⁻¹ s⁻¹
